# Yeast mating assay 2: variants of the scFv Ab-91

From the AlphaSeq antibody data of Engelhart et al. 2022 (doi:10.1038/s41597-022-01779-4), copy in the FLAb collection.

Target: peptide PDVDLGDISGINAS, taken from heptad repeat 2 (HR2) of SARS-CoV-2 spike.

Parent: Ab-91, a human scFv built as VL, three GGGGS repeats, VH. Only the CDRs of the heavy chain vary.
VL: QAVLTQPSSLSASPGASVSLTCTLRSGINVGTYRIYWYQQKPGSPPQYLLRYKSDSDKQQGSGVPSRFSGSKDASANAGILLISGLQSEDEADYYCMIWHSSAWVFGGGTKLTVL
VH: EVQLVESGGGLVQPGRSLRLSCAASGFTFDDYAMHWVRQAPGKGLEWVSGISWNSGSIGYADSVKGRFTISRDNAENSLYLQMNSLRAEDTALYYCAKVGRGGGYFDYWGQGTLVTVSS

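The parent was found by panning a naive human phage display library on the peptide. AAYL51 was designed without a model: most single CDR substitutions and a random sample of double and triple ones. In AlphaSeq, yeast of one mating type display the scFv and yeast of the other type display the target. After mating in shaken culture at 30 °C for 16 h, diploids were selected and their barcode pairs sequenced. Each replicate has its own calibration line, from reference interactions of the BCL2 family. Each pool was mated in three replicate cultures.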

Variants are written as CDR1, CDR2 and CDR3 of the heavy chain (limits as in the source). Parent: GFTFDDYAMH, GISWNSGSIGYADSVK, VGRGGGYFDY. Values are log10 of the apparent Kd in nM; lower means stronger binding. Replicates are averaged; those with no signal do not enter the mean. "n.d." marks a missing value. The strain was present, yet no cells mated with the target were sequenced in that replicate, which points to weak or no binding.

| CDR-H1 | CDR-H2 | CDR-H3 | log10 Kd, replicates | mean, log10 nM | signal with controls |
|---|---|---|---|---|---|
| SFTFFDYAMH | GISWNSGSIGYADSVD | VGRGGGYFDY | 6.14 / 4.70 / 5.65 | 5.50 | 5/9 (4.89) |
| GFTFDDYAMH | GISWCSGSIGYEDSVK | VGREGGYFDY | 4.76 / 4.60 / 5.78 | 5.05 | 5/9 (4.72) |
| GFTFYDYAMH | GISWNSGSIGYADSVK | VGRGGGYYQY | 1.69 / 1.65 / 1.58 | 1.64 | 2/9 (3.39) |
| DFTFDDYAMH | GIGWNSGSIGYADSVK | VGRYGGYFDY | n.d. / n.d. / n.d. | n.d. | 2/9 (4.84) |
| GFTFDDYAMH | GISWNSGIIGYADSVK | VGAGCGYFDY | n.d. / 3.58 / n.d. | 3.58 | 2/9 (3.95) |
| GFTVDKYAMH | GISWNSGSIGYADSRK | VGRGGGYFDY | n.d. / n.d. / n.d. | n.d. | 1/9 (4.46) |
| GFTFDDYAMH | GISQNSGSIGYADSVE | VGRGGGYFDY | 2.33 / 2.91 / 2.60 | 2.61 | 2/9 (4.27) |
| GFQFDDYAMH | MISWNSGSIGYADSYK | VGRGGGYFDY | n.d. / n.d. / n.d. | n.d. | 0/9 |
| GFVFDDYAMH | GISLNSGVIGYADSVK | VGRGGGYFDY | n.d. / 4.80 / n.d. | 4.80 | 3/9 (4.72) |
| GFTFDDYAMH | GISWNQGSIWYADSVK | VGRGDGYFDY | 6.06 / n.d. / n.d. | 6.06 | 2/9 (4.49) |
| GFTFDDYSMH | GISWNSGSIGYADSVK | KGRGGGYIDY | n.d. / 4.42 / n.d. | 4.42 | 2/9 (4.65) |
| GFTFDDYAMH | AISWNSGSIMYAESVK | VGRGGGYFDY | n.d. / n.d. / n.d. | n.d. | 0/9 |
| GFTFDDYAMH | GISWNSGSIGYADSVK | VSRGGGYFDY | n.d. / n.d. / n.d. | n.d. | 0/9 |
| GFTFDDYAMH | GISWNSGSIGYADSVY | VGIGGGYVDY | 4.16 / n.d. / 5.08 | 4.62 | 3/9 (5.57) |
| DFTFDDIAMH | GISWNSGSIGYADSDK | VGRGGGYFDY | 4.17 / 5.09 / n.d. | 4.63 | 4/9 (5.03) |
| GFTFDDYAMH | GISWNSGSIGYADSVG | VGRGGGKFDY | 3.85 / 4.31 / 3.59 | 3.92 | 4/9 (4.69) |
| GFTFDDPAMH | GISWNSGSHGYADSVK | VGRGRGYFDY | 3.15 / n.d. / n.d. | 3.15 | 1/9 (4.12) |
| GFTFDDYAMH | GILWNSGSIGYADSAK | VGRGGGYFDY | 3.86 / n.d. / n.d. | 3.86 | 1/9 (3.79) |
| GFPFDDYAMH | GISWNSGSIGYPDSVK | VGRDGGYFDY | 4.29 / 5.28 / n.d. | 4.78 | 5/9 (4.86) |
| GFTFDDYAMH | GISWNSGSIGYADSNK | VGRGCCYFDY | 5.04 / 4.53 / 5.20 | 4.92 | 3/9 (3.88) |
| GFTFDDYAMH | GIPWNSGSIGYLDSVK | VGRGGGLFDY | n.d. / 5.06 / n.d. | 5.06 | 2/9 (4.59) |
| GFTFDDYHMH | GISWNSMSINYADSVK | VGRGGGYFDY | n.d. / n.d. / n.d. | n.d. | 0/9 |
| GFTFDDYAMH | GLSWNSGHINYADSVK | VGRGGGYFDY | n.d. / n.d. / n.d. | n.d. | 0/9 |
| GFTFDTYMMH | WISWNSGSIGYADSVK | VGRGGGYFDY | n.d. / n.d. / n.d. | n.d. | 0/9 |
| GFTFDDYAMH | GISWNSISIGYADTVK | VGRGGGYFRY | 5.73 / 5.20 / 4.30 | 5.08 | 5/9 (4.98) |
| GVTFDDNAMH | GISWNSGSIGPADSVK | VGRGGGYFDY | 4.80 / 5.41 / n.d. | 5.10 | 4/9 (4.89) |
| GFTFNDYAQH | GISWNSGSIGYPDSVK | VGRGGGYFDY | 4.90 / 6.76 / n.d. | 5.83 | 5/9 (4.68) |
| GFAFDDYAMH | GISWNSGRIGYADSVK | VGRGGGYFDE | 5.55 / n.d. / 3.69 | 4.62 | 4/9 (4.41) |
| GLTFDDYAMH | GISWNSGSGGYADSVL | VGRGGGYFDY | n.d. / n.d. / n.d. | n.d. | 0/9 |
| GFTFDDYAMH | GIPWNSGSIGYADSVK | VARGVGYFDY | n.d. / n.d. / n.d. | n.d. | 0/9 |
| GFTFDDYKMH | GISWNSMSIGYADYVK | VGRGGGYFDY | n.d. / 4.64 / n.d. | 4.64 | 4/9 (4.07) |
| EFTFDDYAMH | GISWNSGSIGYADSVK | VGRGGGYRDY | n.d. / 4.92 / n.d. | 4.92 | 2/9 (3.54) |
| KFTFDDYAMH | WISWMSGSIGYADSVK | VGRGGGYFDY | 5.59 / 3.92 / 4.44 | 4.65 | 3/9 (4.32) |
| GFTFDDYAMH | GISWNSGSIGRCMSVK | VGRGGGYFDY | n.d. / n.d. / n.d. | n.d. | 0/9 |
| GFTVDDIAMH | GISWNSGSIGYADSQK | VGRGGGYFDY | n.d. / n.d. / n.d. | n.d. | 0/9 |
| GFTFDDYAMH | GISWNSGSIGYADSVK | VGRGGHRFDC | n.d. / n.d. / 5.42 | 5.42 | 3/9 (3.97) |
| GFTFDDYWMH | GISWNSGSHGYADSVK | VGRGGGYFDG | n.d. / n.d. / n.d. | n.d. | 1/9 (4.06) |
| GFTFDDYAMH | GISWNVGSIGYEDSVK | VGRGGGYFDD | n.d. / n.d. / n.d. | n.d. | 0/9 |
| GFTFDDYAMH | GISWNSGSILYADSVK | VGRGGGMYDY | 3.74 / n.d. / 4.06 | 3.90 | 2/9 (3.76) |

A selection of 6 entries from above:

{"CDR-H1": "GFTFNDYAQH", "CDR-H2": "GISWNSGSIGYPDSVK", "CDR-H3": "VGRGGGYFDY", "log10 Kd, replicates": "4.90 / 6.76 / n.d.", "mean, log10 nM": "5.83", "signal with controls": "5/9 (4.68)"}
{"CDR-H1": "GFTFDTYMMH", "CDR-H2": "WISWNSGSIGYADSVK", "CDR-H3": "VGRGGGYFDY", "log10 Kd, replicates": "n.d. / n.d. / n.d.", "mean, log10 nM": "n.d.", "signal with controls": "0/9"}
{"CDR-H1": "GFTFDDYAMH", "CDR-H2": "GISWNVGSIGYEDSVK", "CDR-H3": "VGRGGGYFDD", "log10 Kd, replicates": "n.d. / n.d. / n.d.", "mean, log10 nM": "n.d.", "signal with controls": "0/9"}
{"CDR-H1": "GFTFDDYAMH", "CDR-H2": "GISWNQGSIWYADSVK", "CDR-H3": "VGRGDGYFDY", "log10 Kd, replicates": "6.06 / n.d. / n.d.", "mean, log10 nM": "6.06", "signal with controls": "2/9 (4.49)"}
{"CDR-H1": "GFTFDDYAMH", "CDR-H2": "GISQNSGSIGYADSVE", "CDR-H3": "VGRGGGYFDY", "log10 Kd, replicates": "2.33 / 2.91 / 2.60", "mean, log10 nM": "2.61", "signal with controls": "2/9 (4.27)"}
{"CDR-H1": "SFTFFDYAMH", "CDR-H2": "GISWNSGSIGYADSVD", "CDR-H3": "VGRGGGYFDY", "log10 Kd, replicates": "6.14 / 4.70 / 5.65", "mean, log10 nM": "5.50", "signal with controls": "5/9 (4.89)"}

Empty control strains, which show no peptide, gave a signal in 21% of pairings with library AAYL51; the median was 4.54 and 95% of these signals were weaker than 3.26. No background was subtracted. For each scFv, signals with the empty controls are counted beside the result, with their mean in brackets. For reference, the parent read 1.86 as the reference entry and 0.88 as a member of this library.